Tests used:
[1] = 5 mg/kg OGF three times daily, day 30
[2] = tested on: BxPC-3 human pancreatic tumor cells; test: BxPC-3 human pancreatic tumor xenografts in nude mice treated with OGF; format: in vivo
Protocol: BxPC-3 human pancreatic cancer cells, purchased from the American Type Culture Collection (Rockville, Md.), were grown in RPMI media containing 10% fetal calf serum, penicillin (10 units/ml), and streptomycin (100 μg/ml) in an atmosphere of 93% air and 7% CO2 at 37° C. Cell viability was determined by the trypan blue exclusion test. Three-to-4-week-old male athymic nude mice, obtained from Charles River Laboratories (Wilmington, Mass.), were injected subcutaneously over the right shoulder with BxPC-3 cells (log phase) in a 0.5 ml suspension of RPMI media. The day of tumor cell inoculation was considered day 0. Mice were evaluated daily and the date that the tumor became ‘visible’ was recorded. Individual tumors were measured with vernier calipers every 2 days. Measurements of the largest perpendicular dimensions were recorded and tumor volume was calculated using the formula: length×width^2×0.5[25]. The time of ‘initial’ appearance of a tumor wag considered to be the day when tumor volume was 5 mm^3 of greater. All mice were euthanized and necropsied 30 days after tumor cell inoculation. Tumor tissues for receptor binding assays, radioimmunoassays, and immunocytochemistry were rapidly frozen in liquid nitrogen and stored at −70° C. until assayed.
Drug treatment was initiated on the day of tumor cell inoculation. Mice received subcutaneous injections three times daily (i.e. 0730, 1200,1700 h) of either 5 mg/kg [Met^5]enkephalin (OGF) or an equal volume of sterile water (controls); the dosage of OGF was not toxic. Injections were administered in the right or left flank. Animals were weighed weekly and appropriate dosage adjustments made.
The latencies for visible and initial tumor appearance, as well as the appearance of a tumor volume measuring 62.5 mm^3 (when each perpendicular measurement was 5 mm), were recorded.
Latencies for visible and initial appearance as well as tumors ≧62.5 mm were analyzed using one way analysis of variance; subsequent comparisons were made with the Newman-Keuls tests. The number of mice with initial tumor appearance on selected days was expressed as a ratio of the total number of mice in the group, and comparisons of percentages were made with chi-square tests.

With [Met^5]-enkephalin the “[Met5]enkephalin levels in tumors greater than in control animals” value [1] was 24 fold, the “plasma [Met5]enkephalin greater in control mice than in animals receiving OGF” value [1] was 8.6 fold and the “behavioral abnormalities (e.g. hyperactivity, biting)” value ([2]; 5 mg/kg OGF three times daily) was “No behavioral abnormalities”. For the same substance, the “body weights versus sterile water” value ([2]; 5 mg/kg OGF three times daily) was “comparable”, the “metastases or lesions at necropsy” value ([2]; 5 mg/kg OGF three times daily, 30 days) was “No metastases or lesions” and the “toxicity of the dosage” value ([2]; 5 mg/kg s.c. three times daily) was “not toxic”.

Source: patent US6737397B1, “Control of cancer growth through the interaction of [MET5]-enkephalin and the zeta receptor” (The Penn State Research Foundation, priority 1996, dated 2004)
